Data as given in PubChem BioAssay (NCI).
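Each compound was tested at five concentrations against cells in 96-well plates for 48 hours. GI50: concentration for 50% inhibition of growth. At the TGI there is no net growth.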

Legend:
Experiment in all cases: DTP human tumour cell line panel, 48 h
PC-3 prostate = tested on: PC-3 prostate
A549 NSCLC = tested on: A549 NSCLC
SF-295 CNS = tested on: SF-295 CNS
NCI-H460 lung = tested on: NCI-H460 lung
CCRF-CEM leukemia = tested on: CCRF-CEM leukemia
SW-620 colon = tested on: SW-620 colon
KM12 colon = tested on: KM12 colon
SNB-75 CNS = tested on: SNB-75 CNS
CAKI-1 renal = tested on: CAKI-1 renal
HT29 colon = tested on: HT29 colon
NCI-H522 lung = tested on: NCI-H522 lung
NCI-H226 lung = tested on: NCI-H226 lung
HCT-116 colon = tested on: HCT-116 colon
786-0 renal = tested on: 786-0 renal
UACC-62 melanoma = tested on: UACC-62 melanoma
U251 CNS = tested on: U251 CNS
MALME-3M melanoma = tested on: MALME-3M melanoma
IGROV1 ovarian = tested on: IGROV1 ovarian
OVCAR-8 ovarian = tested on: OVCAR-8 ovarian
SK-MEL-5 melanoma = tested on: SK-MEL-5 melanoma
A498 renal = tested on: A498 renal
ACHN renal = tested on: ACHN renal
SK-MEL-28 melanoma = tested on: SK-MEL-28 melanoma
MOLT-4 leukemia = tested on: MOLT-4 leukemia
NCI/ADR-RES ovarian = tested on: NCI/ADR-RES ovarian
SN12C renal = tested on: SN12C renal
K-562 leukemia = tested on: K-562 leukemia
OVCAR-5 ovarian = tested on: OVCAR-5 ovarian
UO-31 renal = tested on: UO-31 renal
HCT-15 colon = tested on: HCT-15 colon
SR leukemia = tested on: SR leukemia
HL-60(TB) leukemia = tested on: HL-60(TB) leukemia
OVCAR-4 ovarian = tested on: OVCAR-4 ovarian
MDA-MB-435 = tested on: MDA-MB-435
HOP-92 NSCLC = tested on: HOP-92 NSCLC
RXF 393 renal = tested on: RXF 393 renal
MDA-N = tested on: MDA-N
OVCAR-3 ovarian = tested on: OVCAR-3 ovarian
MDA-MB-231 breast = tested on: MDA-MB-231 breast
TK-10 renal = tested on: TK-10 renal
M14 melanoma = tested on: M14 melanoma
SF-539 CNS = tested on: SF-539 CNS
NCI-H23 lung = tested on: NCI-H23 lung
HCC-2998 colon = tested on: HCC-2998 colon
COLO 205 colon = tested on: COLO 205 colon
DU-145 prostate = tested on: DU-145 prostate
SK-MEL-2 melanoma = tested on: SK-MEL-2 melanoma
SNB-19 CNS = tested on: SNB-19 CNS
BT-549 breast = tested on: BT-549 breast
UACC-257 melanoma = tested on: UACC-257 melanoma
SF-268 CNS = tested on: SF-268 CNS
T-47D breast = tested on: T-47D breast
RPMI-8226 leukemia = tested on: RPMI-8226 leukemia

In the case of `COP1OCC2CCC[C@@H]2O1` (stereo partly specified), the GI50 (PC-3 prostate) is reported as > 100 µM, the TGI (PC-3 prostate) is reported as > 100 µM and the GI50 (A549 NSCLC) is reported as > 100 µM. The TGI (A549 NSCLC) was > 100 µM, the GI50 (SF-295 CNS) was > 100 µM and the TGI (SF-295 CNS) was > 100 µM. The GI50 (NCI-H460 lung) was > 100 µM, the TGI (NCI-H460 lung) was > 100 µM and the GI50 (CCRF-CEM leukemia) was > 100 µM. For the same molecule, the TGI (CCRF-CEM leukemia) was > 100 µM, the GI50 (SW-620 colon) was > 100 µM and the TGI (SW-620 colon) was > 100 µM. For the same molecule, the GI50 (KM12 colon) was > 100 µM, the TGI (KM12 colon) was > 100 µM and the GI50 (SNB-75 CNS) was > 100 µM. The TGI (SNB-75 CNS) was > 100 µM, the GI50 (CAKI-1 renal) was > 100 µM and the TGI (CAKI-1 renal) was > 100 µM. For the same molecule, the GI50 (HT29 colon) was > 100 µM, the TGI (HT29 colon) was > 100 µM and the GI50 (NCI-H522 lung) was > 100 µM. The TGI (NCI-H522 lung) was > 100 µM, the GI50 (NCI-H226 lung) was > 100 µM and the TGI (NCI-H226 lung) was > 100 µM. The GI50 (HCT-116 colon) was > 100 µM, the TGI (HCT-116 colon) was > 100 µM and the GI50 (786-0 renal) was > 100 µM. For the same molecule, the TGI (786-0 renal) was > 100 µM, the GI50 (UACC-62 melanoma) was > 100 µM and the TGI (UACC-62 melanoma) was > 100 µM. The GI50 (U251 CNS) was > 100 µM, the TGI (U251 CNS) was > 100 µM and the GI50 (MALME-3M melanoma) was > 100 µM. The TGI (MALME-3M melanoma) was > 100 µM, the GI50 (IGROV1 ovarian) was > 100 µM and the TGI (IGROV1 ovarian) was > 100 µM. For the same molecule, the GI50 (OVCAR-8 ovarian) was > 100 µM, the TGI (OVCAR-8 ovarian) was > 100 µM and the GI50 (SK-MEL-5 melanoma) was > 100 µM. The TGI (SK-MEL-5 melanoma) was > 100 µM, the GI50 (A498 renal) was > 100 µM and the TGI (A498 renal) was > 100 µM. For the same molecule, the GI50 (ACHN renal) was > 100 µM, the TGI (ACHN renal) was > 100 µM and the GI50 (SK-MEL-28 melanoma) was > 100 µM. For the same molecule, the TGI (SK-MEL-28 melanoma) was > 100 µM, the GI50 (MOLT-4 leukemia) was > 100 µM and the TGI (MOLT-4 leukemia) was > 100 µM. For the same molecule, the GI50 (NCI/ADR-RES ovarian) was > 100 µM, the TGI (NCI/ADR-RES ovarian) was > 100 µM and the GI50 (SN12C renal) was > 100 µM. The TGI (SN12C renal) was > 100 µM, the GI50 (K-562 leukemia) was > 100 µM and the TGI (K-562 leukemia) was > 100 µM. For the same molecule, the GI50 (OVCAR-5 ovarian) was > 100 µM, the TGI (OVCAR-5 ovarian) was > 100 µM and the GI50 (UO-31 renal) was > 100 µM. The TGI (UO-31 renal) was > 100 µM, the GI50 (HCT-15 colon) was > 100 µM and the TGI (HCT-15 colon) was > 100 µM. For the same molecule, the GI50 (SR leukemia) was > 100 µM, the TGI (SR leukemia) was > 100 µM and the GI50 (HL-60(TB) leukemia) was > 100 µM. For the same molecule, the TGI (HL-60(TB) leukemia) was > 100 µM, the GI50 (OVCAR-4 ovarian) was > 100 µM and the TGI (OVCAR-4 ovarian) was > 100 µM. The GI50 (MDA-MB-435) was > 100 µM, the TGI (MDA-MB-435) was > 100 µM and the GI50 (HOP-92 NSCLC) was > 100 µM. The TGI (HOP-92 NSCLC) was > 100 µM, the GI50 (RXF 393 renal) was > 100 µM and the TGI (RXF 393 renal) was > 100 µM. The GI50 (MDA-N) was > 100 µM, the TGI (MDA-N) was > 100 µM and the GI50 (OVCAR-3 ovarian) was > 100 µM. The TGI (OVCAR-3 ovarian) was > 100 µM, the GI50 (MDA-MB-231 breast) was > 100 µM and the TGI (MDA-MB-231 breast) was > 100 µM. The GI50 (TK-10 renal) was > 100 µM, the TGI (TK-10 renal) was > 100 µM and the GI50 (M14 melanoma) was > 100 µM. For the same molecule, the TGI (M14 melanoma) was > 100 µM, the GI50 (SF-539 CNS) was > 100 µM and the TGI (SF-539 CNS) was > 100 µM. For the same molecule, the GI50 (NCI-H23 lung) was > 100 µM, the TGI (NCI-H23 lung) was > 100 µM and the GI50 (HCC-2998 colon) was > 100 µM. The TGI (HCC-2998 colon) was > 100 µM, the GI50 (COLO 205 colon) was > 100 µM and the TGI (COLO 205 colon) was > 100 µM. The GI50 (DU-145 prostate) was > 100 µM, the TGI (DU-145 prostate) was > 100 µM and the GI50 (SK-MEL-2 melanoma) was > 100 µM. The TGI (SK-MEL-2 melanoma) was > 100 µM, the GI50 (SNB-19 CNS) was > 100 µM and the TGI (SNB-19 CNS) was > 100 µM. The GI50 (BT-549 breast) was > 100 µM, the TGI (BT-549 breast) was > 100 µM and the GI50 (UACC-257 melanoma) was > 100 µM. For the same molecule, the TGI (UACC-257 melanoma) was > 100 µM, the GI50 (SF-268 CNS) was > 100 µM and the TGI (SF-268 CNS) was > 100 µM. For the same molecule, the GI50 (T-47D breast) was > 100 µM, the TGI (T-47D breast) was > 100 µM and the GI50 (RPMI-8226 leukemia) was > 100 µM. For the same molecule, the TGI (RPMI-8226 leukemia) was > 100 µM.
